Experimental data reported in PubChem BioAssay AID602472 (Sanford-Burnham Center for Chemical Genomics, 2012).
The entries are a selection whose mix differs from that of the whole data set. The source made the active and inactive calls. Cut-off read from the data, not from the text of the source: active = inhibition above about 40%; inactive = the rest.

Assay: inhibitors of PAF-induced NF-kB signaling, retest, confirmation, cell-based, GFP fluorescence, single concentration (AID 602472);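 note: stimulus PAF is a Pseudomonas aeruginosa filtrate and not platelet activating factor; plate controls were DMSO wells with stimulus for no effect and unstimulated DMSO wells for full effect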
Settings: KKLEB CF airway cells, overnight, at 5 µM, hits give high values

Structure (SMILES) | inhibition
CN(C)C(=O)c1cc([N+](=O)[O-])cc2c1-c1c(cc([N+](=O)[O-])cc1[N+](=O)[O-])C2=O | active: 58.9%
CSc1ccc(Nc2c([N+](=O)[O-])cc([N+](=O)[O-])cc2[N+](=O)[O-])cc1 | inactive: -58%
